From ChEMBL document CHEMBL1133502, “Thio- and oxoflavopiridols, cyclin-dependent kinase 1-selective inhibitors: synthesis and biological effects” (J Med Chem, 2000)
pIC50: −log10 of the molar value.

Amino acid sequences for entries named in this document (tags omitted). A change or cut given only in a name is not applied to a line headed by its entry.
UniProt P11802: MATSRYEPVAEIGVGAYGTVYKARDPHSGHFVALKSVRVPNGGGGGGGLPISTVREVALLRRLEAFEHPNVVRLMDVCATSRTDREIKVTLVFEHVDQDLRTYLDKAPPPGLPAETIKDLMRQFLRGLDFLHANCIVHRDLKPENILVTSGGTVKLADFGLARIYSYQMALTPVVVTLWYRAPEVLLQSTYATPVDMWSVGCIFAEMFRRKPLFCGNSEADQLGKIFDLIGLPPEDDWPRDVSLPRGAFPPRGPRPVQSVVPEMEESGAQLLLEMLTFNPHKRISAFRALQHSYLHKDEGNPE

Biological target: Cyclin-dependent kinase 4/cyclin D1 (Homo sapiens, UniProt P11802)
Assay: Inhibition of Cyclin-dependent kinase 4-cyclin D1
Format: protein-complex assay

pIC50: 3.00
Structure (SMILES): Cn1cnc2c(NCc3ccccc3)nc(NCCO)nc21 [OLOMOUCINE]
